Data on 2 compounds can be found in ChEMBL document CHEMBL4428055 (J Med Chem, 2016).

Calls of active or inactive are those of the source. No cut-off for these calls is given here.

Assay [1] has as its target T1, Aldo-keto reductase family 1 member C2 (Homo sapiens) (UniProt P52895).
T1 sequence (whole entry): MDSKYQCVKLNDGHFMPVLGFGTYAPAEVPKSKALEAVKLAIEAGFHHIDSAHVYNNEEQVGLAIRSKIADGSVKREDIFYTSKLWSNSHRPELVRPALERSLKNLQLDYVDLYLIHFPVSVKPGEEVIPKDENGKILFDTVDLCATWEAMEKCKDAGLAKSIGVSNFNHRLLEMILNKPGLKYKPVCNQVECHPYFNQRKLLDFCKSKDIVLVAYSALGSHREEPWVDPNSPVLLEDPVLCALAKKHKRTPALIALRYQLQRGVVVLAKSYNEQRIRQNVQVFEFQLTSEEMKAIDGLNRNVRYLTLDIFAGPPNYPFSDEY
In words: Inhibition of human recombinant AKR1C2-mediated reduction of [3H]5alpha-DHT.

Assay [2] concerns the target T1, Aldo-keto reductase family 1 member C2 (Homo sapiens). The assay is described as follows: Inhibition of human recombinant AKR1C2-mediated reduction of [3H]5alpha-DHT at <100 uM.

Consider `CC[C@H](C(=O)O)c1ccc2cc(OC)ccc2c1`, for which the inhibition result in assay [1] is “Dose-dependent effect”.
In the case of `CC[C@@H](C(=O)O)c1ccc2cc(OC)ccc2c1`, the inhibition result in assay [2] was “inactive”.
